{"source": "ChEMBL document CHEMBL3244115", "about": "(1979)", "tested_on": "B16", "assay": "Antitumor activity against mouse B16 cells allografted in BDF mouse assessed as increase in life span at 12.5 mg/kg, ip administered for 9 days relative to untreated control"}
{"molecule": "ClCCN(CCCl)c1ccccc1", "values": [{"measurement": "T/C", "result": 159, "unit": "%"}]}
